This experiment concerns the target T1, hCA I (Homo sapiens, UniProt P00915).
T1 construct: made in house
In words: stopped-flow CO2 hydrase assay, hCA I. The experiment is classed as biochemical.

Amino acid sequences for entries named in this document (tags omitted). A change or cut given only in a name is not applied to a line headed by its entry.
UniProt P00915: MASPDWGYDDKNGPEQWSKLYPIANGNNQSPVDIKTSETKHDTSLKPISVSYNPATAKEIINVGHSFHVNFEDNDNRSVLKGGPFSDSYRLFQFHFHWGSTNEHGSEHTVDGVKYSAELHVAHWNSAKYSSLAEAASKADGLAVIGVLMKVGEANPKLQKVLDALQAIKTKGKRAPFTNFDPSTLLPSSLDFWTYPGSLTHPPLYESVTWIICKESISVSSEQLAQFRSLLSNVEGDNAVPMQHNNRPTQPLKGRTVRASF

Molecules are shown by their SMILES. pKi: −log10 of the molar value.

For the compound `NCC(=O)Nc1ccc(S(N)(=O)=O)cc1` [compound 10, 2‐amino‐N‐(4‐sulfamoylphenyl)acetamide], the pKi – broadly, the negative decadic logarithm of the Ki, by convention in mol/L – is 6.41.

For the origin of these results see PMC9298201, “4‐Sulfamoylphenylalkylamides as Inhibitors of Carbonic Anhydrases Expressed in Vibrio cholerae” (Chemmedchem, 2021).
